Measured values from patent publication US8063243B2, “Stable active compound complex of salts of o-acetylsalicylic acid with basic amino acids and glycine” (Bayer Pharma Aktiengesellschaft, priority 2005, dated 2011).

Conditions: storage at 25° C./60% relative atmospheric humidity, versus Aspisol (commercial product until mid-2005)

Q: For “D,L-Lysine Acetylsalicylate with 10% Glycine [Example 1]”, which “Salicylic acid released relative to Aspisol” value (after 30 months) is on record?
A: one third less

Q: What about the “Stability (formation of salicylic acid) compared to Aspisol” value (FIG. 3) of the same substance?
A: considerably improved stability
